Here are results for four compounds from ChEMBL document CHEMBL3525957, “Stereospecific metabolism of itraconazole by CYP3A4: dioxolane ring scission of azole antifungals” (Drug Metab Dispos, 2012).

Sequences of proteins named here, by UniProt entry; tags and fusion partners are left off.
UniProt P08684, whole entry: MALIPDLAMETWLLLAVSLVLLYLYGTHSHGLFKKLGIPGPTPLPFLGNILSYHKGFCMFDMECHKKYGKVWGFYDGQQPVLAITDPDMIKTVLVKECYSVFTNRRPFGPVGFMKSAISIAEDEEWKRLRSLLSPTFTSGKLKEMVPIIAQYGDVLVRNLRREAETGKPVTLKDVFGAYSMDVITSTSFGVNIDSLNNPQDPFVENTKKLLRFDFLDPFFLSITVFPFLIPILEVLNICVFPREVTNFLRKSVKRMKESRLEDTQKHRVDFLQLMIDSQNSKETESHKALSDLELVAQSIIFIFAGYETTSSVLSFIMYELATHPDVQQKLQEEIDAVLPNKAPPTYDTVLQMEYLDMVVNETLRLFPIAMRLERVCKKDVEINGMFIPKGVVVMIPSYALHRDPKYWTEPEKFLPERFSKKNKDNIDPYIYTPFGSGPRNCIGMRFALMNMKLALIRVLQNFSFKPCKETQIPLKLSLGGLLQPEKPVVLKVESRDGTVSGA

In this data set the target is Cytochrome P450 3A4 (Homo sapiens, UniProt P08684). The data set is described as follows: Inhibition of CYP3A4 in human liver microsomes using midazolam as substrates after 5 mins by LC/MS analysis in presence of NADPH. Format: ADME. The procedure, abridged: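 Pooled HLM (0.025 mg/ml, CYP3A5*3/*3) with midazolam 1 μM in KPi. Inhibitor range 5–1000 nM for trans isomers. 5-min preincubation at 37°C, then NADPH 1 mM final, run for 2 min. Stopped with ethyl acetate, d4-1'-OH-MDZ added as internal standard. IC50 from fit of remaining-activity equation.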

For the compound `CC[C@H](C)n1ncn(-c2ccc(N3CCN(c4ccc(OC[C@H]5CO[C@@](Cn6cncn6)(c6ccc(Cl)cc6Cl)O5)cc4)CC3)cc2)c1=O`, the “inhibition (INH)” value is listed as “Dose-dependent effect”.
On to `CC[C@@H](C)n1ncn(-c2ccc(N3CCN(c4ccc(OC[C@H]5CO[C@@](Cn6cncn6)(c6ccc(Cl)cc6Cl)O5)cc4)CC3)cc2)c1=O`, for which the “inhibition (INH)” value is reported as “Dose-dependent effect”.
Take `CC[C@H](C)n1ncn(-c2ccc(N3CCN(c4ccc(OC[C@@H]5CO[C@](Cn6cncn6)(c6ccc(Cl)cc6Cl)O5)cc4)CC3)cc2)c1=O`: the “inhibition (INH)” value is “Dose-dependent effect”.
As for `CC[C@@H](C)n1ncn(-c2ccc(N3CCN(c4ccc(OC[C@@H]5CO[C@](Cn6cncn6)(c6ccc(Cl)cc6Cl)O5)cc4)CC3)cc2)c1=O`, the entry is “Dose-dependent effect”.
